The values below come from ChEMBL document CHEMBL1157664, “Aminopyridinecarboxamide-based inhibitors: Structure-activity relationship” (Bioorg Med Chem, 2010).

By UniProt entry, the sequences of proteins in these tests, tags left out. Where a name states a change or a piece, a line headed by the entry shows the natural chain unless it says otherwise.
UniProt O14920: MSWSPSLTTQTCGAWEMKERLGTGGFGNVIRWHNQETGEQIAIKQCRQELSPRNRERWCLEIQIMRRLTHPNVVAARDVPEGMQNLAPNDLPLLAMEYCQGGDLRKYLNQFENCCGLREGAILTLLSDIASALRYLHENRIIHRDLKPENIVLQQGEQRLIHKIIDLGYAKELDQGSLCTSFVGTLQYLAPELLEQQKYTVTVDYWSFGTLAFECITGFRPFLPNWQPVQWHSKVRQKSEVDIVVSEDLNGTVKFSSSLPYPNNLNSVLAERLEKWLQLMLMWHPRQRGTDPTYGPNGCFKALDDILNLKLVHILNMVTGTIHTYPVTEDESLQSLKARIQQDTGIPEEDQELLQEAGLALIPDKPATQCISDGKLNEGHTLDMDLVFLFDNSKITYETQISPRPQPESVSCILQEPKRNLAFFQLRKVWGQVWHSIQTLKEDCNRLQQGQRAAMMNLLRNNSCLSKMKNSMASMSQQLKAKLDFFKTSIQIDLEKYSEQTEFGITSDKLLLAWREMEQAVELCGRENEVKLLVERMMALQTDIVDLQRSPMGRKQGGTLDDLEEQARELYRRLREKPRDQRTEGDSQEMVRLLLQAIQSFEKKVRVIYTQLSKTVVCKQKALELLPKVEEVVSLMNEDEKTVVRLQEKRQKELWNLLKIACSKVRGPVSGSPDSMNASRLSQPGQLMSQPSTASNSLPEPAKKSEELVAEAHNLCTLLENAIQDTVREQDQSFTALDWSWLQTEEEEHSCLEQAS

In assay [1] the target is T1, Inhibitor of nuclear factor kappa-B kinase subunit beta (Homo sapiens, UniProt O14920). The assay can be described thus: Ratio of compound IC50 to PHA-408 IC50 for human recombinant IKK2.
For assay [2], the target named is T1, Inhibitor of nuclear factor kappa-B kinase subunit beta. The assay can be described thus: Ratio of compound IC50 to 1-(benzo[d][1,3]dioxol-5-yl)-8-(2-chloronicotinamido)-4,5-dihydro-1H-benzo[g]indazole-3-carboxamide IC50 for human recombinant IKK2.
Assay [3] shares this target. Description: Ratio of compound IC50 to 8-(2-chloronicotinamido)-1-(4-fluorophenyl)-4,5-dihydro-1H-benzo[g]indazole-3-carboxamide IC50 for human recombinant IKK2.

With `CN1CCN(c2cc(C(=O)Nc3ccc4c(c3)-c3c(c(C(N)=O)nn3-c3ccc(F)cc3)CC4)ccn2)CC1`, the Ratio IC50 in assay [1] is 4.

For the molecule `CN1CCN(c2ccc(Cl)c(C(=O)Nc3ccc4c(c3)-c3c(c(C(N)=O)nn3-c3ccc5c(c3)OCO5)CC4)n2)CC1`, the Ratio IC50 in assay [2] and in assay [3] was 10 throughout.
